Amino acid sequences for entries named in this document (tags omitted). A change or cut given only in a name is not applied to a line headed by its entry.
UniProt P41597: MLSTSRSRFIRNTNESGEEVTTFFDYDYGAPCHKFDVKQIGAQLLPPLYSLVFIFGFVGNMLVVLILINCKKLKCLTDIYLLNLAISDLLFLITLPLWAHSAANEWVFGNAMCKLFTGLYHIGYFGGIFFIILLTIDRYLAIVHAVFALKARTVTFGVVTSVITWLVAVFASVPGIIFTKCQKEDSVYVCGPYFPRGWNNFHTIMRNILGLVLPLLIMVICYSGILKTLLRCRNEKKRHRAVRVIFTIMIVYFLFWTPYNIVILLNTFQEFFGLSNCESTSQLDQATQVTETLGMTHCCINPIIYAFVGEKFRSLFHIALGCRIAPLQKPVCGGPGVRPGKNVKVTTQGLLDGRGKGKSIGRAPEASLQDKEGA

According to ChEMBL document CHEMBL4339198, “Use of a Conformational-Switching Mechanism to Modulate Exposed Polarity: Discovery of CCR2 Antagonist BMS-741672” (ACS Med Chem Lett, 2019):

Target: C-C chemokine receptor type 2 (Homo sapiens, UniProt P41597)

CC(=O)N[C@@H]1C[C@H](N(C)C(C)C)CC[C@@H]1N1CC[C@H](Nc2ncnc3ccc(C(F)(F)F)cc23)C1=O
IC50: 1.1 nM
